Data: US9676760B2, “Fused heterocyclic compounds as ion channel modulators” (Gilead Sciences, Inc., priority 2011, dated 2017)

Legend:
[1] = molecular target: T1, hNav 1.2 sodium channel isoform (Homo sapiens, UniProt Q99250); assay: hNav1.2 whole-cell voltage-clamp assay; type: cell-based; conditions: use-dependent block, 10 Hz, read-out: NAV1.2* UDB-10HZ
T1 construct: expressed in transfected cells
Description: Wild-type (WT) cDNA stably transfected in Chinese hamster ovary (CHO) cells is used to record INa. Unless otherwise noted, all reagents are purchased from Sigma-Aldrich (St Louis, Mo., U.S.A.).
Whole-cell voltage-clamp recordings are used to measure the biophysical properties of WT. […] Cells are allowed to stabilize for 10 min after establishment of the whole-cell configuration before current is measured. Series resistance is compensated 90% to assure that the command potential is reached within microseconds with a voltage error<2 mV. Leak currents are subtracted by using an online P/4 procedure and all currents are low-pass Bessel filtered at 5 kHz and digitized at 50 kHz. […]
Tonic block of peak current is measured using a step to −10 mV (20 ms) from a holding potential of −120 mV (0.2 Hz). Use-dependent block of peak current is measured during pulse number 300 of a pulse train (−10 mV, 5 ms, 300 pulses, 10 Hz or 25 Hz) from a holding potential of −120 mV. […]
For use-dependent studies, cells are stimulated with depolarizing pulse trains (−10 mV, 5 ms, 300 pulses, 10 and 25 Hz) from a holding potential of −120 mV. Currents are then normalized to the peak current recorded in response to the first pulse in each frequency train. For tonic block studies, peak current is evaluated in response to a 20 ms depolarization to −10 mV (0.2 Hz). […]

[2] = molecular target: T2, hNav 1.1 sodium channel isoform (Homo sapiens, UniProt P35498); assay: hNav1.1 whole-cell voltage-clamp assay; type: cell-based; conditions: use-dependent block, 10 Hz, read-out: NAV1.1* UDB-10HZ
T2 construct: expressed in transfected cells; host or cells: HEK293, transient transfection (Qiagen Superfect)

## O=C1c2cc(-c3ccc(C(F)(F)F)cc3)ccc2OCCN1Cc1ncccn1 [II-61, 4-(pyrimidin-2-ylmethyl)-7-(4-(trifluoromethyl)phenyl)-3,4-dihydrobenzo[f][1,4]oxazepin-5(2H)-one]
[1]
  inhibition at 1 µM: 25%
[2]
  inhibition at 1 µM: 9%
